{"source": "patent US9707184B2", "about": "“Immediate release abuse deterrent liquid fill dosage form” (priority 2014, dated 2017)", "assay": "Solubility of the formulation components in water and alcohol", "format": "physicochemical", "settings": "200 proof ethanol, filtered through a 0.45 micrometer PTFE filter"}
{"smiles": "O=S(=O)([O-])c1ccc(N=Nc2c(O)ccc3cc(S(=O)(=O)[O-])ccc23)cc1.[Na+].[Na+]", "note": "[FD&C Yellow #6]", "values": [{"measurement": "Alcohol Solubility (Tested)", "result": "Yes"}]}
